Assay outcomes (PubChem BioAssay)
HCMV NEC inh: inhibitors of HCMV UL50-UL53 nuclear egress complex interaction; HTRF UL50-UL53 interaction, normalized percent inhibition; inhibition, % (concentration not given with the values); 190,000 compounds, 0.15% hits; AID 1918969; in the data active = inhibition above about 27%, passing the limit was not always enough
GIV Gai3 FP: GIV-Galpha-i interaction inhibition. P08753. Galpha-i3/FITC-GIV peptide fluorescence polarization, 90 min; active compounds read low; scaled: aluminum fluoride 0%, vehicle 100%. percent of control (FP), % (test concentration not listed). 210,000 compounds, 0.42% hits. AID 1224905;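 active = replicate mean at 85% of control or lower, very high polarization wells dropped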;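 also: lower values mean more displacement of the GIV peptide from Galpha-i3; wells of about 15 µL received 100 nL stock; the first replicate is given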
GIV Gai FP conf: GIV-Galpha-i3 inhibition, FP confirmation; fluorescence polarization, mP at 100 µM; shares compounds with GIV Gai3 FP; FITC-GIV peptide binding to Galphai3, fluorescence polarization; active compounds read low; 580 compounds, 38% hits;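 active = inhibition score of 15 or more, meaning 100 minus mean polarization as percent of control over three replicates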;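 also: lower mP means peptide displaced from Galphai3 so more inhibition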
GIV Gai AS conf: GIV-Galpha-i3 inhibition, AlphaScreen confirmation; shares compounds with GIV Gai3 FP; 580 compounds, 39% hits; AlphaScreen Galphai3-GIV binding, purified proteins, 90 min; active compounds read low; AlphaScreen counts at 100 µM;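 active = inhibition score at or above a set limit, where the score is 100 minus the three-replicate mean percent of control signal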
The depositor's hits bear a star; / = no result; ! = repeats disagree. This excerpt belongs to a sample that is enriched for hits.

SMILES	HCMV NEC inh	GIV Gai3 FP	others
CCS(=O)(=O)N1N=C(c2ccccc2)CC1c1cc2cc3c(cc2nc1Cl)OCCO3 (stereo not given)	/	-53*
CCc1ccc(NC(=O)CSc2c(C)cnc3c2c(=O)n(C)c(=O)n3C)cc1	/	103
CCC(=O)Oc1ccc(C=C2C(=O)NC(=O)NC2=O)cc1OC	56*	96
C=CCc1cc(C=C2C(=O)NC(=O)NC2=O)cc(OC)c1OC	60*	107
COc1cc(C=C2C(=O)NC(=O)NC2=O)cc(Cl)c1OCc1ccccc1Cl	4	108
COc1cc(C=C2C(=O)NC(=O)NC2=O)ccc1OC(=O)c1ccc(Cl)cc1	-5	107
COC(=O)c1ccccc1NC(=O)N1CCCc2cc(C)ccc21	-3	103
COc1ccccc1N1CCN(Cc2cccc3ccccc23)CC1	-16	102
COc1cc(OC)c(OC)cc1CN1CCN(c2cccc(C)c2C)CC1	73*	98
CC1SC(NC(=O)COc2ccccc2)=NC1=O (stereo not given)	-19	104
CCc1cc(-c2csc(S(=O)(=O)NCCCc3ccccc3)c2)on1	/	99
O=C1S/C(=C\c2ccc(N3CCOCC3)o2)C(=O)N1c1ccccc1	/	-42*
Cc1ccc(/C=C2\SC(=O)N(c3ccccc3)C2=O)o1	-5	104
C[C@@]12CCC(=O)[C@]1(C)CCC2=O	-47	99
O=C1CC(N2CCN(S(=O)(=O)c3ccc(Cl)cc3)CC2)C(=O)N1c1ccccc1Cl (stereo not given)	1	/
O=c1c2ccccc2ncn1CCOc1ccc(CO)cc1	-38	101
O=C(Cn1nc2n(Cc3ccccc3)c(=O)c3ccccc3n2c1=O)Nc1ccc2c(c1)OCO2	-22	98
CCCCN(CC)c1ncc(C(=O)O)cc1NS(=O)(=O)c1ccc(Br)cc1	-2	108
CCN(CC)c1ncc(C(=O)O)cc1NS(=O)(=O)c1ccc(Br)cc1	-4	85*
COc1ccc(OC)c2c1cc1n2CC(C)(C(=O)NC2CCCC2)N(CC2CCCO2)C1=O (stereo not given)	-17	101
CC1Oc2ccccc2C(=O)N(CC(=O)c2ccccc2)C1=O (stereo not given)	-1	108
Cn1cccc1/C=C1\CCC/C(=C\c2cccn2C)C1=O	-78	-88*
COc1ccc2c(c1)CC/C(=C\c1cccn1C)C2=O	-50	101
C=CCNC(=O)C#Cc1ccccc1	-3	/
O=C(O)c1ccc2c(c1)NC(=O)C1CCCN21 (stereo not given)	79*	/
COC(=O)c1ccc2c(c1)NC(=O)C1CCCN21 (stereo not given)	-5	/
O=c1c2cccc3cccc(c32)c2nc3ccccc3n12	/	112
C=CCNc1ccc2c3c1cccc3c(=O)n1c3ccccc3nc21	/	-52*
COc1ccc(-c2nc3ccc(C)cc3[nH]2)cc1OC	-4	108
Cc1ccc(NC(CC(=O)C2CC2)c2ccccc2)cc1 (stereo not given)	6	105
COc1cccc(C2=CC(c3ccccc3F)n3ncc(C(=O)Nc4ccc(F)cc4)c3N2)c1 (stereo not given)	/	-60*
COc1ccc(C2=CC(c3ccccc3F)n3ncc(C(=O)Nc4ccc(C)cc4)c3N2)cc1 (stereo not given)	/	105
CCOC(=O)c1c2c(n3ccccc13)C(=O)c1ccccc1C2=O	/	-42*
CCOC(=O)C1=C(O)c2ccccc2C1=O	/	101
COc1ccc(C2=C(C)C(=NCCCN(C)Cc3ccccc3)NS2(=O)=O)cc1	-25	104
CCCCOC(=O)c1ccc(NC(=O)c2cc(=O)c3ccccc3o2)cc1	-23	101
CCCCOC(=O)c1cccc(NC(=O)c2cc3ccccc3o2)c1	138*	100
COc1cc(OC)c(NC(=O)CCc2c(C)nc3c(c2C)c(=O)n(C)c(=O)n3C)cc1Cl	-24	98
CC(C)NC(=O)c1cn2c3c(ccc(Cl)c3c1=O)OC(C)C2 (stereo not given)	33	101
CNC(=O)c1cn2c3c(ccc(Cl)c3c1=O)OC(C)C2 (stereo not given)	50*	110
C=CCN(c1ccc(C(=O)N2CCC(C(=O)OCC)CC2)cc1)S(C)(=O)=O	-30	101
COc1ccc(CN2C(=O)NC(=O)/C(=C\c3cc(OC)ccc3OC)C2=O)cc1	83*	112
COc1ccc(/C=C2/C(=O)NC(=O)N(c3ccc(Br)cc3)C2=O)c(OC)c1	-3	107
Nc1nnnn1N=Cc1ccc(-c2ccc3c(c2)COC3=O)o1	/	36*
N#CC(C#N)=Cc1ccc(-c2ccc3c(c2)COC3=O)o1	-34	102
COC(=O)C1=COC(OC2OC(CO)C(O)C(O)C2O)[C@H]2C(CO)=CC[C@H]12 (stereo not given in full)	-6	/
COc1ccc(CNc2ccc3cn[nH]c3c2)c(OC)c1C	52*	101
Cc1ccc(C)c(CNc2ccc3[nH]ncc3c2)c1	-35	110
Nc1nnc(CCC2CCCCC2)s1	-12	101
N#CC1=C(N)SC(N)=C(C#N)C1CCC1CCCCC1	-7	-95*
COC(=O)CSc1nc(-c2ccccc2)nc2c1Cc1cccc(OC)c1O2	-1	105
COc1cccc2c1Oc1nc(-c3ccccc3)nc(SCC(=O)N(C)c3ccccc3)c1C2	/	-21*
CC(C)(C)c1ccc(OCC(=O)Nc2cccc3nsnc23)cc1	/	100
COc1cc2c(cc1OC)C(c1ccccc1NC(=O)c1cccc(Cl)c1)=NCC2	-18	107
O=C(O)c1cccc2cccc(C(=O)O)c12	-30	98
Nc1ccc(C(=O)O)c2c(C(=O)O)cccc12	-46	72*
OCC1OC(Oc2ccccc2)C(O)C(O)C1O (stereo not given)	-2	102
OC[C@H]1OC([S-])[C@H](O)[C@@H](O)[C@@H]1O.[Au+] (stereo not given in full)	58*	/
Cc1ccc(Nc2nnc(C)c(=O)[nH]2)cc1	-4	101
Cc1ccc(NC2=CC(=O)c3sc(C)nc3C2=O)cc1	103*!	/
Further records
SMILES	HCMV NEC inh	GIV Gai3 FP	others
CC(C)N=Cc1cc2n(c1O)-c1ccccc1C2=O	-120	-20*
Cn1c(-c2ccccc2)cc(C=Nc2ccccc2)c1O	/	117
CCc1ccc2c(C)nc(NC3=NC(C)(C)C=C(C)N3)nc2c1	49*	/
CCc1ccc2nc(Nc3nc4ccccc4c(=O)[nH]3)nc(C)c2c1	/	101
COC(=O)C1=C(C)N(Cc2ccccc2)C(=O)/C1=C\c1cccc(O)c1	-5	108
COC(=O)C1=C(C)N(Cc2ccccc2)C(=O)/C1=C\c1cccc(Cl)c1	/	51*
COc1cc(OC)c(NC(=O)Cc2c(C(=O)O)c(C)cn2C)cc1Cl	/	97
CCOC(=O)c1c(N)sc(C)c1C	-13	/
COC(=O)c1c(N)sc2c1CCCC2	-8	107
COC(=O)c1[nH]c2sc3c(c2c1N)CCCC3	-2	20*	GIV Gai FP conf=39*;GIV Gai AS conf=8300*
CCOC(=O)c1[nH]c2sc(C)c(C)c2c1N	-14	83*	GIV Gai FP conf=73;GIV Gai AS conf=8984*
CCOC(=O)c1sc2nc(SCC(=O)NCc3ccco3)n(Cc3ccc(F)cc3)c(=O)c2c1C	/	104

Molecules from the list above that contain two or more sulfur atoms (2):
SMILES	HCMV NEC inh	GIV Gai3 FP	others
CCc1cc(-c2csc(S(=O)(=O)NCCCc3ccccc3)c2)on1	/	99
CCOC(=O)c1sc2nc(SCC(=O)NCc3ccco3)n(Cc3ccc(F)cc3)c(=O)c2c1C	/	104

Compounds shown so far containing a furan ring, fused or not (six):
SMILES	HCMV NEC inh	GIV Gai3 FP	others
O=C1S/C(=C\c2ccc(N3CCOCC3)o2)C(=O)N1c1ccccc1	/	-42*
Cc1ccc(/C=C2\SC(=O)N(c3ccccc3)C2=O)o1	-5	104
CCCCOC(=O)c1cccc(NC(=O)c2cc3ccccc3o2)c1	138*	100
Nc1nnnn1N=Cc1ccc(-c2ccc3c(c2)COC3=O)o1	/	36*
N#CC(C#N)=Cc1ccc(-c2ccc3c(c2)COC3=O)o1	-34	102
CCOC(=O)c1sc2nc(SCC(=O)NCc3ccco3)n(Cc3ccc(F)cc3)c(=O)c2c1C	/	104
